{"source": "patent US20250354115A1", "about": "“METHOD FOR PRODUCING STEM CELLS AND METHOD FOR PRODUCING GAMMA DELTA T CELLS” (I Peace, Inc., priority 2022, published 2025)", "tested_on": "Human peripheral blood mononuclear cells", "assay": "iPS cell establishment with IL-2 only versus IL-4, IL-9 and IL-18 in zoledronic acid-containing medium (Example 7)", "format": "cell-based", "conditions": "interleukins added to zoledronic acid-containing medium; PCR", "description": "Human peripheral blood mononuclear cells were added to the zoledronic acid-containing medium according to Example 2, and a medium containing approximately 1×10^6 mononuclear cells was placed into a 24-well plate (Day 1). No interleukin was added to the medium of the first group. To the medium of the second group, 1 μL of 20 μg/mL IL-2 was added daily. To the medium of the third group, 1 μL of 20 μg/mL IL-9 was added daily. To the medium of the fourth group, 1 μL of 20 μg/mL IL-18 was added daily. To the medium of the fifth group, 1 μL of 20 μg/mL IL-4 was added daily. To the medium of the sixth group, 1 μL each of 20 μg/mL IL-9 and 20 μg/mL IL-18 was added daily. To the medium of the seventh group, 1 μL each of 20μg/mL IL-4 and 20 μg/mL IL-18 was added daily. To the medium of the eighth group, 1 L each of 20 μg/mL IL-4, 20 μg/mL IL-9, and 20 μg/mL IL-18 was added daily. In addition, a zoledronic acid-free medium identical to the zoledronic acid-containing medium according to Example 2, except for the absence of zoledronic acid, was prepared, and 1 μL of 20 μg/mL IL-2 was added daily to the zoledronic acid-free medium of the ninth group of mononuclear cells.\nOn the third day, the culture medium containing the cells was collected from the plate, centrifuged, and the supernatant was removed. […]"}
{"substance": "IL-2: interleukin, the only interleukin added to the zoledronic acid-containing medium", "values": [{"measurement": "iPS cell lines containing the recombined Vγ9 gene with the JP gene", "value": 28, "unit": "%"}, {"measurement": "iPS cell lines possessing a recombined Vγ9 gene with the JP gene", "value": "7 out of 27"}]}
